Earlier results, collected in publication PMC4297708 (Drug and alcohol dependence, 2014).

Amino acid sequences for entries named in this document (tags omitted).
UniProt Q01959, whole entry C306A/T316C: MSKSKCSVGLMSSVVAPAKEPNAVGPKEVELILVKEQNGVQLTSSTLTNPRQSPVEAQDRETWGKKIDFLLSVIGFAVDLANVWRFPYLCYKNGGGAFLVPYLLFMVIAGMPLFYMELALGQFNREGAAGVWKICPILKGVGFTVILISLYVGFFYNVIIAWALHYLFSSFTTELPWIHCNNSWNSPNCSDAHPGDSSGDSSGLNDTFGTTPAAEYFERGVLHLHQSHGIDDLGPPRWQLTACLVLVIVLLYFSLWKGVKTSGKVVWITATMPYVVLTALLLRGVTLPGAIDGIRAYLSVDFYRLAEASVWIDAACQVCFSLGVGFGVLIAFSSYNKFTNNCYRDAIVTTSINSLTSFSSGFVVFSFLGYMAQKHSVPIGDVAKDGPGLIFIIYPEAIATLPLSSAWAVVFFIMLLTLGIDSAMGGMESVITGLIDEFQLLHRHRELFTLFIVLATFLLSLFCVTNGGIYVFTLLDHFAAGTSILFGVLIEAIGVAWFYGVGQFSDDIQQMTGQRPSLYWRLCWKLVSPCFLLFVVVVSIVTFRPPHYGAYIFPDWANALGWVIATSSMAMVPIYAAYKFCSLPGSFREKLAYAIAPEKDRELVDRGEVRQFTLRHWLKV

target: T316C/C306A human DAT (Homo sapiens, UniProt Q01959, C306A/T316C); conditions: HEK293 cells; cocaine 100 μM, RTI-336 1.0 μM, RTI-371 1.0 μM, BZT 100 μM, JHW007 1.0 μM; Fig. 5B; ref Hiranita et al., 2014; cited from earlier work

| Structure (SMILES) | effect on DAT labeling (cysteine accessibility of DAT T316C/C306A) |
| --- | --- |
| CN1[C@@H]2CC[C@H]1C[C@@H](OC(c1ccccc1)c1ccccc1)C2 [BZT, benztropine] | reduced DAT labeling |
| CCCCN1[C@@H]2CC[C@H]1CC(OC(c1ccc(F)cc1)c1ccc(F)cc1)C2 (some centres unmarked) [JHW 007] | reduced DAT labeling |
| Cc1ccc(-c2cc([C@@H]3C4CCC(C[C@@H]3c3ccc(Cl)cc3)N4C)on2)cc1 (some centres unmarked) [RTI-336] | significantly increased DAT labeling |
| Cc1ccc([C@H]2C[C@@H]3CC[C@H]([C@H]2c2cc(-c4ccc(Cl)cc4)no2)N3C)cc1 [RTI-371, 3β-(4-methylphenyl)-2β-[3-(4-chlorophenyl)isoxazol-5-yl]tropane] | significantly increased DAT labeling |
| COC(=O)[C@H]1[C@@H](OC(=O)c2ccccc2)C[C@@H]2CC[C@H]1N2C [cocaine] | significantly increased DAT labeling |
